Laboratory results from PubChem BioAssay (NCI).
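In this assay, cells in 96-well plates receive the compound at five concentrations for 48 hours. Endpoints are linearly interpolated between the surrounding concentrations. At the TGI there is no net growth.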

Tests used:
Test in all cases: NCI-60 cell line screen, 48 h
786-0 renal = tested on: 786-0 renal
A549 NSCLC = tested on: A549 NSCLC
ACHN renal = tested on: ACHN renal
BT-549 breast = tested on: BT-549 breast
CCRF-CEM leukemia = tested on: CCRF-CEM leukemia
COLO 205 colon = tested on: COLO 205 colon
DU-145 prostate = tested on: DU-145 prostate
HCT-116 colon = tested on: HCT-116 colon
HCT-15 colon = tested on: HCT-15 colon
HL-60(TB) leukemia = tested on: HL-60(TB) leukemia
HOP-62 NSCLC = tested on: HOP-62 NSCLC
HS 578T breast = tested on: HS 578T breast
HT29 colon = tested on: HT29 colon
IGROV1 ovarian = tested on: IGROV1 ovarian
K-562 leukemia = tested on: K-562 leukemia
KM12 colon = tested on: KM12 colon
LOX IMVI melanoma = tested on: LOX IMVI melanoma
MALME-3M melanoma = tested on: MALME-3M melanoma
MCF7 breast = tested on: MCF7 breast
MDA-MB-231 breast = tested on: MDA-MB-231 breast
MDA-MB-435 = tested on: MDA-MB-435
MDA-N = tested on: MDA-N
MOLT-4 leukemia = tested on: MOLT-4 leukemia
NCI-H226 lung = tested on: NCI-H226 lung
NCI-H23 lung = tested on: NCI-H23 lung
NCI-H460 lung = tested on: NCI-H460 lung
NCI/ADR-RES ovarian = tested on: NCI/ADR-RES ovarian
OVCAR-3 ovarian = tested on: OVCAR-3 ovarian
OVCAR-4 ovarian = tested on: OVCAR-4 ovarian
OVCAR-5 ovarian = tested on: OVCAR-5 ovarian
OVCAR-8 ovarian = tested on: OVCAR-8 ovarian
PC-3 prostate = tested on: PC-3 prostate
RPMI-8226 leukemia = tested on: RPMI-8226 leukemia
SF-268 CNS = tested on: SF-268 CNS
SF-295 CNS = tested on: SF-295 CNS
SF-539 CNS = tested on: SF-539 CNS
SK-MEL-28 melanoma = tested on: SK-MEL-28 melanoma
SK-MEL-5 melanoma = tested on: SK-MEL-5 melanoma
SK-OV-3 ovarian = tested on: SK-OV-3 ovarian
SN12C renal = tested on: SN12C renal
SNB-19 CNS = tested on: SNB-19 CNS
SNB-75 CNS = tested on: SNB-75 CNS
SR leukemia = tested on: SR leukemia
SW-620 colon = tested on: SW-620 colon
TK-10 renal = tested on: TK-10 renal
U251 CNS = tested on: U251 CNS
UACC-62 melanoma = tested on: UACC-62 melanoma
UO-31 renal = tested on: UO-31 renal

Measured: TGI

CCOP1(=O)N=C(NC#N)N(C)C1(C)C (stereo not drawn)
> 100 µM: 786-0 renal | A549 NSCLC | ACHN renal | BT-549 breast | CCRF-CEM leukemia | COLO 205 colon | DU-145 prostate | HCT-116 colon | HCT-15 colon | HL-60(TB) leukemia | HOP-62 NSCLC | HS 578T breast | HT29 colon | IGROV1 ovarian | K-562 leukemia | KM12 colon | LOX IMVI melanoma | MALME-3M melanoma | MCF7 breast | MDA-MB-231 breast | MDA-MB-435 | MDA-N | MOLT-4 leukemia | NCI-H226 lung | NCI-H23 lung | NCI-H460 lung | NCI/ADR-RES ovarian | OVCAR-3 ovarian | OVCAR-4 ovarian | OVCAR-5 ovarian | OVCAR-8 ovarian | PC-3 prostate | RPMI-8226 leukemia | SF-268 CNS | SF-295 CNS | SF-539 CNS | SK-MEL-28 melanoma | SK-MEL-5 melanoma | SK-OV-3 ovarian | SN12C renal | SNB-19 CNS | SNB-75 CNS | SR leukemia | SW-620 colon | TK-10 renal | U251 CNS | UACC-62 melanoma | UO-31 renal
